≈ marks a conversion by molar mass, not a printed value.
Columns and labels:
E. coli W3110 = test: microbe, parasite or virus in culture; assay type: cell-based; conditions: Escherichia coli, W3110, 22 h, read-out: MIC E. coli W3110
P. aeruginosa (PAO1) = test: MIC, P. aeruginosa; assay type: cell-based; conditions: Pseudomonas aeruginosa, PAO1, 22 h, read-out: MIC P. aeruginosa (PAO1)

CCCc1cc(C2=N[C@@H](C(=O)NO)CO2)cc(OC)c1OC
MIC (E. coli W3110): 11 to 50 µg/mL (≈ 35.7 to 162 µM) | MIC (P. aeruginosa (PAO1)): > 100 µg/mL

Source: patent publication US9738604B2, “Ethynylbenzene derivatives” (Duke University, priority 2010, dated 2017)
